# Experimental data from PubChem BioAssay AID624352 (Sanford-Burnham Center for Chemical Genomics, 2012).
# This is a selection; strong and weak results do not stand in their true shares. Some salts and complexes are drawn in separate pieces, as the source files them; their charges need not balance. The source made the active and inactive calls.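 Rule for the calls: active = inhibition of the luminescence signal of 40% or more relative to plate controls, in a single-dose primary screen at 18.75 µM; inactive = the rest.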
# Assay: HIF-2a reporter inhibitors, primary screen, luminescence, 786-0 RCC cells (AID 624352)
# Conditions: 786-0 RCC cells HIF-2a reporter, luciferase luminescence, overnight; at 18.8 µM; hits give high values
row,SMILES,inhibition
1,O=[N+]([O-])c1cc([N+](=O)[O-])c(Nc2ccc(Cl)cc2)c([N+](=O)[O-])c1,inactive: -26.6%
2,COc1ccc2c(c1O)-c1c(O)c(OC)cc3c1[C@H](C2)[N+](C)(C)CC3.O=[N+]([O-])c1cc([N+](=O)[O-])c([O-])c([N+](=O)[O-])c1[O-],inactive: -0.942%
3,O=C(OC1CN2CCC1CC2)c1ccc([N+](=O)[O-])cc1 (centres undefined),inactive: -0.895%
4,O=C(OCCN1CCN(CCOCc2ccccc2)CC1)C(O)(c1ccccc1)c1ccccc1,inactive: 5.44%
5,CCOC(=O)c1ccc(NP(C)(=O)Oc2cc(C)cc(C)c2)cc1 (centres undefined),inactive: 15.9%
6,Cc1cc(C)cc(OP(C)(=O)Nc2ccc(C)cc2C)c1 (centres undefined),inactive: 11.4%
7,COc1ccccc1OP(C)(=O)Nc1cccc(Br)c1 (centres undefined),inactive: 11.7%
8,Cc1ccc(C)c(NP(C)(=O)Oc2ccccc2)c1 (centres undefined),inactive: 15.6%
9,Cc1cc(C)cc(OP(C)(=O)Nc2ccccn2)c1 (centres undefined),inactive: 1.98%
10,O=C(O)c1cccc(Nc2c([N+](=O)[O-])cc([N+](=O)[O-])cc2[N+](=O)[O-])c1,inactive: 9.19%
11,CC1=NCCc2c1[nH]c1ccccc21.O=[N+]([O-])c1cc([N+](=O)[O-])c(O)c([N+](=O)[O-])c1,inactive: 1.48%
12,O=[N+]([O-])c1cc([N+](=O)[O-])c(Nc2nnnn2CCO)c([N+](=O)[O-])c1,inactive: 0.0939%
13,CC1=C2N=C(C=C3N=C(C(C)=C4[N-][C@@](C)([C@@H]5N=C1[C@](C)(CCC(=O)NC[C@@H](C)OP(=O)([O-])O[C@H]1[C@@H](O)[C@@H](n6cnc7cc(C)c(C)cc76)O[C@@H]1CO)[C@H]5CC(N)=O)[C@@](C)(CC(N)=O)[C@@H]4CCC(N)=O)[C@@](C)(CC(N)=O)[C@@H]3CCC(N)=O)C(C)(C)[C@@H]2CCC(N)=O.[C-]#N.[Co+3],inactive: -11.9%
14,CCOC(=O)C(CC)C1=NC(C)(C)Cc2ccccc21.O=[N+]([O-])c1cc([N+](=O)[O-])c(O)c([N+](=O)[O-])c1 (centres undefined),inactive: 11.2%
15,COc1ccc(-c2ccccn2)cc1.O=[N+]([O-])c1cc([N+](=O)[O-])c(O)c([N+](=O)[O-])c1,inactive: -68.8%
16,CP(=O)(Nc1ccc(SC(F)(F)F)cc1)Oc1ccccc1 (centres undefined),inactive: 7.65%
17,CCCOc1ccc(NP(C)(=O)Oc2ccc(Cl)cc2)cc1 (centres undefined),inactive: 14.5%
18,CN1CCCCC1COC(=O)C1(O)c2ccccc2CCc2ccccc21 (centres undefined),inactive: 6.79%
19,COc1ccccc1OP(C)(=O)Nc1c(C)cccc1C (centres undefined),inactive: 1.08%
20,CN(Cc1cccnc1)C(=O)COc1ccc(Cl)c(Cl)c1.O=[N+]([O-])c1cc([N+](=O)[O-])c(O)c([N+](=O)[O-])c1,inactive: -26.4%
21,O=[N+]([O-])c1cc([N+](=O)[O-])c(-n2nnc3ccccc32)c([N+](=O)[O-])c1,inactive: 16%
22,Cc1nc2ccc3ccccc3c2s1.O=[N+]([O-])c1cc([N+](=O)[O-])c(O)c([N+](=O)[O-])c1,inactive: -18.9%
23,O=[N+]([O-])c1cc([N+](=O)[O-])c(-c2cnn(-c3ccccc3)c2)c([N+](=O)[O-])c1,inactive: -0.979%
24,CCc1ccc(OP(C)(=O)N2CCN(c3ccc([N+](=O)[O-])cc3)CC2)cc1 (centres undefined),inactive: 19.9%
25,CP(=O)(NC(=O)Nc1ccccc1)Oc1ccccc1 (centres undefined),inactive: 5.79%

row,SMILES,inhibition
1,Cc1cc(C)cc(OP(C)(=O)Nc2ccc(SC(F)(F)F)cc2)c1 (centres undefined),inactive: 22.1%
2,CP(=O)(Nc1ccc(SC(F)(F)F)cc1)Oc1ccc(Cl)cc1 (centres undefined),inactive: 21.9%
3,Cc1ccc(Nc2c([N+](=O)[O-])cc([N+](=O)[O-])cc2[N+](=O)[O-])cc1,inactive: -24%
4,Cc1cccc(C)c1OP(C)(=O)Nc1ccc(SC(F)(F)F)cc1 (centres undefined),inactive: -85.4%
5,CP(=O)(Oc1ccccc1)OC(c1ccccc1)C(F)(F)F (centres undefined),inactive: 18.8%
6,CP(=O)(Nc1ccccn1)Oc1ccc(Cl)cc1 (centres undefined),inactive: 6.21%
7,O=[N+]([O-])c1cc([N+](=O)[O-])c(O)c([N+](=O)[O-])c1.c1ccc(Oc2ccncc2)cc1,inactive: 13%
8,CCOC(=O)c1ccc(NP(C)(=O)Oc2ccc(OC)cc2)cc1 (centres undefined),inactive: 16.2%
9,CCOP(C)(=S)SCC(=O)NC(C)C(=O)O (centres undefined),inactive: 13.6%
10,CP(=O)(Nc1ccccc1Br)Oc1ccccc1 (centres undefined),inactive: 15.4%
11,COc1ccccc1OP(C)(=O)Nc1ccccc1 (centres undefined),inactive: 15.9%
12,CP(=S)(Nn1cnnc1)Oc1ccccc1 (centres undefined),inactive: 13.4%
13,O=[N+]([O-])c1ccc2c(c1)C=Nc1ccccc1O2,inactive: 11.2%
14,CC(C)(C)c1ccc(OP(C)(=O)Nc2ccc(SC(F)(F)F)cc2)cc1 (centres undefined),inactive: 28.9%
15,Cc1cccc(C)c1OP(C)(N)=O (centres undefined),inactive: 13.4%
16,O=[N+]([O-])c1cc([N+](=O)[O-])c(Nc2cccnc2)c([N+](=O)[O-])c1,inactive: -18.2%
17,Cc1cc(C)cc(OP(C)(N)=O)c1 (centres undefined),inactive: 12.8%
18,COc1ccccc1OP(C)(=O)Nc1cc(Cl)ccc1C (centres undefined),inactive: 23.6%
19,COc1ccc(OP(C)(=O)Nc2cccc(F)c2)cc1 (centres undefined),inactive: -2.36%
20,COc1ccccc1OP(C)(=O)Nc1ccc(C)cc1 (centres undefined),inactive: 8.86%
21,Cc1ccc(NP(C)(=O)Oc2ccccc2)c(C)c1 (centres undefined),inactive: 20.1%
22,CCOC(=O)c1ccc(NP(C)(=O)Oc2ccccc2)cc1 (centres undefined),inactive: 3.42%
23,CCN(CC)CCCOC(=O)C(O)(c1ccccc1)c1ccccc1,inactive: 17.7%
24,COc1ccccc1-c1ccccn1.O=[N+]([O-])c1cc([N+](=O)[O-])c(O)c([N+](=O)[O-])c1,inactive: -1.6%
